## Measured affinities in a library of Ab-14 heavy chain variants

All variants were tested on one target, the spike HR2 peptide PDVDLGDISGINAS (SARS-CoV-2).

Parent: Ab-14, a human scFv built as VH, a 15-residue (Gly4Ser)3 linker, VL. Only the CDRs of the heavy chain vary.
VH: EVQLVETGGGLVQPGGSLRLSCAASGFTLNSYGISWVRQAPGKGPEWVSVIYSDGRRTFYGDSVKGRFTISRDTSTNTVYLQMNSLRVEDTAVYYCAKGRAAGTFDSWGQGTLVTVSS
VL: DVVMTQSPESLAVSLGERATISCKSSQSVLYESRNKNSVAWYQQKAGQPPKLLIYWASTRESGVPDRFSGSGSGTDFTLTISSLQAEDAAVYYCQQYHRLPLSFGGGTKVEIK

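Phage display of a naive human antibody library on the peptide gave the parent. AAYL49 was designed without a model: most single CDR substitutions and a random sample of double and triple ones. Affinity was read by AlphaSeq, a pooled yeast mating assay with surface-displayed partners. Binding brings cells together so that they mate, and sequencing counts the barcode pairs among the diploids. A regression on co-assayed BCL2-family reference pairs converts the normalised counts of each replicate to an apparent Kd. The assay was run in three technical replicates.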

Substitutions are numbered in sequence along the VH above, starting at 1 (not Kabat).
This list gathers variants with a substitution at S107 (VH, numbered from residue 1).
The Kd shown is the geometric mean over detected replicates; a lower Kd is a better binder.
An entry "nd" has no value in the source: the pair was not observed among the diploids in any replicate. This suggests poor binding but is not conclusive.
For reference, the parent read 4.4 nM as the reference entry and 13 µM (one replicate of three) as a member of this library.
Empty control strains, which show no peptide, gave a signal in 15% of pairings with library AAYL49; the median was 11 µM and 95% of these signals were weaker than 680 nM. No background was subtracted.

For V50Q R56N S107V, the assay gave 620 nM (1 of 3 replicates).
For Y60A D106E S107I, the assay gave 660 nM (1 of 3 replicates).
For F59R S63A S107P, the assay gave 330 nM (1 of 3 replicates).
For Y60W T104Q S107H, the assay gave 5.3 µM (1 of 3 replicates).
For I34S S107Q, the assay gave nd (0 of 3 replicates).
For G103R F105D S107M, the assay gave nd (0 of 3 replicates).
For I34D Y52I S107T, the assay gave 56 µM (1 of 3 replicates).
For S31C S107W, the assay gave 24 µM (3 of 3 replicates).
For K65I A102N S107G, the assay gave nd (0 of 3 replicates).
For T28D S107G, the assay gave 26 nM (3 of 3 replicates).
For F27E V50W S107P, the assay gave 36 µM (1 of 3 replicates).
For G33I S107N, the assay gave 48 µM (1 of 3 replicates).
For T28C V64Y S107Y, the assay gave 4.6 µM (2 of 3 replicates).
For D62E R100M S107F, the assay gave 120 nM (3 of 3 replicates).
For Y32F G33C S107N, the assay gave 19 µM (1 of 3 replicates).
For A101G S107F, the assay gave 1.6 µM (1 of 3 replicates).
For S53A S107M, the assay gave 1.5 nM (3 of 3 replicates).
For G33V F105E S107T, the assay gave nd (0 of 3 replicates).
For S31F G99K S107K, the assay gave nd (0 of 3 replicates).
For I34Y S107P, the assay gave nd (0 of 3 replicates).
For L29C R56D S107L, the assay gave nd (0 of 3 replicates).
For F27C R100M S107L, the assay gave nd (0 of 3 replicates).
For F27S F59E S107V, the assay gave 480 nM (3 of 3 replicates).
For R100C S107D, the assay gave 30 nM (3 of 3 replicates).
For A101H T104Q S107T, the assay gave 11 nM (3 of 3 replicates).
For R100T F105M S107N, the assay gave nd (0 of 3 replicates).
For G61N S107V, the assay gave 1.7 µM (1 of 3 replicates).
For D54A R100L S107D, the assay gave nd (0 of 3 replicates).
For I51C A101M S107H, the assay gave 2.6 µM (1 of 3 replicates).
For L29E S107E, the assay gave nd (0 of 3 replicates).
For S63C G99K S107R, the assay gave 120 µM (1 of 3 replicates).
For F27Y Y52P S107A, the assay gave 8.9 µM (2 of 3 replicates).
For S63P S107R, the assay gave 210 nM (3 of 3 replicates).
For T28A G61S S107K, the assay gave 420 nM (2 of 3 replicates).

5 of these entries, quoted again:

With A101H T104Q S107T the result was 11 nM (3 of 3 replicates).
With G33I S107N the result was 48 µM (1 of 3 replicates).
With F27C R100M S107L the result was nd (0 of 3 replicates).
With T28D S107G the result was 26 nM (3 of 3 replicates).
With S31C S107W the result was 24 µM (3 of 3 replicates).

The measurements come from Engelhart et al. 2022 (doi:10.1038/s41597-022-01779-4) through the FLAb antibody collection.